Source: patent publication EP4840463A1, “THERAPEUTIC AGENT FOR IDIOPATHIC PULMONARY FIBROSIS” (dated 2026)

How the values were obtained:
[1] = system: TGF-β-induced myofibroblast differentiation in lung fibroblasts; assay: TGF-β-induced myofibroblast differentiation model of lung fibroblasts (immunoblot, immunofluorescence); settings: for TGF-β-induced myofibroblast differentiation based on the protein levels of α-smooth muscle actin (α-SMA) and type I collagen / dose dependence of the inhibitory effects on type I collagen and α-SMA: 100 nM and 1,000 nM; for TGF-β-induced myofibroblast differentiation based on the protein levels of α-smooth muscle actin (α-SMA) and type I collagen: 48 hours, in the presence of TGF-β1 (2 ng/mL), immunoblot (FIG. 24); for inhibitory effects compared with pirfenidone (PFD) and nintedanib (NTD): PFD and NTD as positive controls for inhibiting myofibroblast differentiation; for dose dependence of the inhibitory effects on type I collagen and α-SMA: quantitative immunoblot (FIG. 25)
Description: • [FIG. 1] An experimental workflow for spatial transcriptome analysis and scRNA-seq analysis of a human IPF lung. For the spatial transcriptome analysis, nine lung sections derived from three patients were used, and for the scRNA-seq analysis, three IPF lungs and three control lungs were used. • [FIG. 2] A spatial visualization image of fibroblastic foci (FF) annotation based on expression levels of COL1A1, POSTN, and CTHRC1 shown in each panel. […] A UMAP visualization image of an annotated interstitial scRNA-seq dataset from three IPF lung samples and three control lung samples, labeled with detailed cell types. • [FIG. 4] A violin plot showing expression of selected marker genes in each cluster. • [FIG. 5] A UMAP visualization image of the scRNA-seq dataset of FIG. 3 classified by origin from a normal lung or an IPF lung. • [FIG. 6] A bar graph comparing a composition of lung interstitial cell types between healthy subjects and IPF patients. • [FIG. 7] A result of pseudotime trajectory analysis predicting different differentiation trajectories of interstitial cells between healthy subjects and IPF patients. • [FIG. 8] An immunohistochemical image of PDGFRA, CTHRC1, and WNT5A in fibroblastic foci in IPF lung tissue. • [FIG. 9] A result of spatial visualization of FF and advanced fibrotic lesion (DF) annotation along an estimated cell type distribution on a Visium section. In a representative zoom-in image of a boundary box region showing hematoxylin and eosin (H&E) staining, FF and DF in IPF lung tissue are highlighted. • [FIG. 10] A result of 3D PCA mapping using 97 extracted FF spots and 412 extracted DF spots. • [FIG. 11] A dot plot showing what types of interstitial cells are present in FF, DF, and SMC regions selected on Visium by integrated analysis of single-cell data and spatial analysis data. • [FIG. 12] A spatial transcriptome spot (patient JKPF2-1) of an FF index. • [FIG. 13] A bar graph representing a ratio of a high FF index population and a low FF index population in an interstitial cell type. • [FIG. 14] A result of upstream regulator prediction by IPA for 746 differentially expressed genes between FF and DF. The top 10 upstream regulators predicted to be "activated" are shown. • [FIG. 15] A violin plot showing an average expression level of the top 10 upstream regulators detected in FIG. 14 in each cell type. • [FIG. 16] […] A violin plot showing expression of PAK2 in high FF index interstitial cells and low FF index interstitial cells. • [FIG. 19] A spatial visualization result of a PAK target gene signature and an estimated cell type distribution along the FF/DF annotation on a Visium section. • [FIG. 20] A dot plot showing expression of PAK family genes compared between interstitial cells of a normal lung sample and an IPF lung sample. • [FIG. 21] A result of hematoxylin and eosin (H&E) staining and immunohistochemical staining for PAK1, PAK2, and PAK3 in fibroblastic foci of IPF lung tissue. • [FIG. 22] A result showing an effect of siRNA-mediated PAK1/2 knockdown on TGF-β-induced myofibroblast differentiation in lung fibroblasts. […] A result of qPCR showing expression of WNT5A in PAK1- or PAK2-knockdown human lung fibroblasts after 48 hours of TGF-β1 (2 ng/mL) treatment. • [FIG. 24] A result showing an effect of PAK inhibitors FRAX486 and FRAX597 on TGF-β-induced myofibroblast differentiation in lung fibroblasts. […] Pirfenidone (PFD) and nintedanib (NTD) were used as positive controls for inhibiting myofibroblast differentiation. • [FIG. 25] A quantitative immunoblot analysis result showing amounts of type I collagen and α-SMA. • [FIG. 26] An immunoblot analysis result showing the amounts of PAK2 and its downstream signals in TGF-β-induced myofibroblasts treated with FRAX486 (1,000 nM) and FRAX597 (1,000 nM) for 48 hours in the presence of TGF-β1. • [FIG. 27] A result showing an effect of a PAK2 inhibitor on IPF lung fibroblasts. […]

[2] = system: PAK2 and its downstream signals; assay: Western blotting of PAK2 and its downstream signals in TGF-β-induced myofibroblasts; settings: 1,000 nM, 48 hours, in the presence of TGF-β1; Western blotting (FIG. 26)
Description: • [FIG. 1] An experimental workflow for spatial transcriptome analysis and scRNA-seq analysis of a human IPF lung. For the spatial transcriptome analysis, nine lung sections derived from three patients were used, and for the scRNA-seq analysis, three IPF lungs and three control lungs were used. • [FIG. 2] A spatial visualization image of fibroblastic foci (FF) annotation based on expression levels of COL1A1, POSTN, and CTHRC1 shown in each panel. […] A UMAP visualization image of an annotated interstitial scRNA-seq dataset from three IPF lung samples and three control lung samples, labeled with detailed cell types. • [FIG. 4] A violin plot showing expression of selected marker genes in each cluster. • [FIG. 5] A UMAP visualization image of the scRNA-seq dataset of FIG. 3 classified by origin from a normal lung or an IPF lung. • [FIG. 6] A bar graph comparing a composition of lung interstitial cell types between healthy subjects and IPF patients. • [FIG. 7] A result of pseudotime trajectory analysis predicting different differentiation trajectories of interstitial cells between healthy subjects and IPF patients. • [FIG. 8] An immunohistochemical image of PDGFRA, CTHRC1, and WNT5A in fibroblastic foci in IPF lung tissue. • [FIG. 9] A result of spatial visualization of FF and advanced fibrotic lesion (DF) annotation along an estimated cell type distribution on a Visium section. In a representative zoom-in image of a boundary box region showing hematoxylin and eosin (H&E) staining, FF and DF in IPF lung tissue are highlighted. • [FIG. 10] A result of 3D PCA mapping using 97 extracted FF spots and 412 extracted DF spots. • [FIG. 11] A dot plot showing what types of interstitial cells are present in FF, DF, and SMC regions selected on Visium by integrated analysis of single-cell data and spatial analysis data. • [FIG. 12] A spatial transcriptome spot (patient JKPF2-1) of an FF index. • [FIG. 13] A bar graph representing a ratio of a high FF index population and a low FF index population in an interstitial cell type. • [FIG. 14] A result of upstream regulator prediction by IPA for 746 differentially expressed genes between FF and DF. The top 10 upstream regulators predicted to be "activated" are shown. • [FIG. 15] A violin plot showing an average expression level of the top 10 upstream regulators detected in FIG. 14 in each cell type. • [FIG. 16] […] A violin plot showing expression of PAK2 in high FF index interstitial cells and low FF index interstitial cells. • [FIG. 19] A spatial visualization result of a PAK target gene signature and an estimated cell type distribution along the FF/DF annotation on a Visium section. • [FIG. 20] […] A quantitative immunoblot analysis result showing amounts of type I collagen and α-SMA. • [FIG. 26] […]

[3] = system: IPF lung fibroblasts; assay: Antifibrotic effect on lung fibroblasts isolated from IPF lungs (immunoblot); settings: 1,000 nM, 48 hours; immunoblot (FIGS. 27 and 28)
Description: (§1) • [FIG. 1] An experimental workflow for spatial transcriptome analysis and scRNA-seq analysis of a human IPF lung. For the spatial transcriptome analysis, nine lung sections derived from three patients were used, and for the scRNA-seq analysis, three IPF lungs and three control lungs were used. • [FIG. 2] A spatial visualization image of fibroblastic foci (FF) annotation based on expression levels of COL1A1, POSTN, and CTHRC1 shown in each panel. […] A UMAP visualization image of an annotated interstitial scRNA-seq dataset from three IPF lung samples and three control lung samples, labeled with detailed cell types. • [FIG. 4] A violin plot showing expression of selected marker genes in each cluster. • [FIG. 5] A UMAP visualization image of the scRNA-seq dataset of FIG. 3 classified by origin from a normal lung or an IPF lung. • [FIG. 6] A bar graph comparing a composition of lung interstitial cell types between healthy subjects and IPF patients. • [FIG. 7] A result of pseudotime trajectory analysis predicting different differentiation trajectories of interstitial cells between healthy subjects and IPF patients. • [FIG. 8] […] A violin plot showing an average expression level of the top 10 upstream regulators detected in FIG. 14 in each cell type. • [FIG. 16] […] A quantitative immunoblot analysis result showing amounts of type I collagen and α-SMA. • [FIG. 26] […]

[4] = system: PAK2 downstream proteins; assay: PAK2 downstream proteins in IPF-derived fibroblasts
Method: Next, the antifibrotic effects of FRAX486 and FRAX597 on lung fibroblasts isolated from IPF lungs were evaluated. […] Furthermore, RT-PCR analysis confirmed the transcriptional inhibition of PAK2 downstream targets in IPF fibroblasts.

[5] = system: bleomycin (BLM)-induced pulmonary fibrosis mouse model; assay: Bleomycin (BLM)-induced pulmonary fibrosis mouse model
Description: • [FIG. 1] An experimental workflow for spatial transcriptome analysis and scRNA-seq analysis of a human IPF lung. For the spatial transcriptome analysis, nine lung sections derived from three patients were used, and for the scRNA-seq analysis, three IPF lungs and three control lungs were used. • [FIG. 2] A spatial visualization image of fibroblastic foci (FF) annotation based on expression levels of COL1A1, POSTN, and CTHRC1 shown in each panel. […] A UMAP visualization image of an annotated interstitial scRNA-seq dataset from three IPF lung samples and three control lung samples, labeled with detailed cell types. • [FIG. 4] A violin plot showing expression of selected marker genes in each cluster. • [FIG. 5] A UMAP visualization image of the scRNA-seq dataset of FIG. 3 classified by origin from a normal lung or an IPF lung. • [FIG. 6] A bar graph comparing a composition of lung interstitial cell types between healthy subjects and IPF patients. • [FIG. 7] A result of pseudotime trajectory analysis predicting different differentiation trajectories of interstitial cells between healthy subjects and IPF patients. • [FIG. 8] An immunohistochemical image of PDGFRA, CTHRC1, and WNT5A in fibroblastic foci in IPF lung tissue. • [FIG. 9] A result of spatial visualization of FF and advanced fibrotic lesion (DF) annotation along an estimated cell type distribution on a Visium section. In a representative zoom-in image of a boundary box region showing hematoxylin and eosin (H&E) staining, FF and DF in IPF lung tissue are highlighted. • [FIG. 10] A result of 3D PCA mapping using 97 extracted FF spots and 412 extracted DF spots. • [FIG. 11] A dot plot showing what types of interstitial cells are present in FF, DF, and SMC regions selected on Visium by integrated analysis of single-cell data and spatial analysis data. • [FIG. 12] […] A violin plot showing an average expression level of the top 10 upstream regulators detected in FIG. 14 in each cell type. • [FIG. 16] […] A quantitative immunoblot analysis result showing amounts of type I collagen and α-SMA. • [FIG. 26] […]

[6] = system: phosphorylated PAK2 (p-PAK2); assay: p-PAK2 immunohistochemistry of lung sections of BLM-induced mice; settings: immunohistochemical analysis (FIG. 36)
Description: as §1

Structure (SMILES) | TGF-β-induced myofibroblast differentiation based on the protein levels of α-smooth muscle actin (α-SMA) and type I collagen [1] | inhibitory effects compared with pirfenidone (PFD) and nintedanib (NTD) [1] | immunofluorescence labeling of αSMA and type I collagen: effect on TGF-β-induced myofibroblast differentiation [1] | dose dependence of the inhibitory effects on type I collagen and α-SMA [1] | expression and phosphorylation of PAK2, c-Abl, and LIMK1 [2] | expression and phosphorylation of SMAD2/3 [2] | expression of α-SMA and type I collagen in IPF-derived fibroblasts [3] | expression of PAK2 downstream proteins in IPF-derived fibroblasts [4] | in vitro efficacy of FRAX486 relative to FRAX597 ([1]; summary of the in vitro results) | development of BLM-induced pulmonary fibrosis (hydroxyproline assay and Masson's trichrome staining) ([5]; intraperitoneal injection, left lung hydroxyproline (FIGS. 33 and 34)) | body weight of BLM-induced mice ([5]; intraperitoneal, from the 7th day after BLM treatment, day 21 levels comparable to control mice (FIG. 32)) | fibrotic lesions, quantification using an Ashcroft score ([5]; intraperitoneal, FIG. 35) | expression of phosphorylated PAK2 (p-PAK2) in the lungs of BLM-induced mice [6]
CCn1c(=O)c(-c2ccc(-c3cncs3)cc2Cl)cc2cnc(Nc3ccc(N4CCN(C)CC4)cc3)nc21 | strongly suppressed | significantly exceeded the effects of two antifibrotic drugs | inhibitory effects | dose-dependent | suppressed | did not suppress | significantly reduced | significantly inhibited |  |  |  |  | 
CCn1c(=O)c(-c2ccc(Cl)cc2Cl)cc2cnc(Nc3ccc(N4CCNCC4)c(F)c3)nc21 | strongly suppressed | significantly exceeded the effects of two antifibrotic drugs | inhibitory effects | dose-dependent | suppressed | did not suppress | significantly reduced | significantly inhibited | superior efficacy compared to FRAX597 | significantly reduced | restored | significant decrease | significantly inhibited
